Assay results reported in BindingDB's records for 28126287 (University of Sargodha, 2017).

Sequences of proteins named here, by UniProt entry; tags and fusion partners are left off. Residues count along the entry.
UniProt Q9N1N9, 29-602 limits assumed: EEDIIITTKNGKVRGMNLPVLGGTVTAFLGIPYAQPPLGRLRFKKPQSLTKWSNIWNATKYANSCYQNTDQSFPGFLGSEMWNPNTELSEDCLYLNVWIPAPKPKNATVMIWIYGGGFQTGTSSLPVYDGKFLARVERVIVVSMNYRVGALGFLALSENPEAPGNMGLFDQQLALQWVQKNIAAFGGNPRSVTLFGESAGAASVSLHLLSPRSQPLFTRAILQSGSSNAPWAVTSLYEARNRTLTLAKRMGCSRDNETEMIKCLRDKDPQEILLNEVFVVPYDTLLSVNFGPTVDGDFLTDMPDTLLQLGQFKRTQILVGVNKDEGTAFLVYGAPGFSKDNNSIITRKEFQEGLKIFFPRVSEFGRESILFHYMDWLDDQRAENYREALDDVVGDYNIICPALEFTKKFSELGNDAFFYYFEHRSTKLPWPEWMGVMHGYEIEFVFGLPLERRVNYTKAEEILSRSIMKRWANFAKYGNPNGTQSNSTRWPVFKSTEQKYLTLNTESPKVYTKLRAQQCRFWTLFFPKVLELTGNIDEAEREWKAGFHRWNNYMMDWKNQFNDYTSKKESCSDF

Biological target: Carboxylic ester hydrolase (Equus caballus, UniProt Q9N1N9)
Settings: pH 8

`CC1(c2cccc([N+](=O)[O-])c2)NC(=O)c2cc([N+](=O)[O-])cc([N+](=O)[O-])c2N1` (stereo unspecified) gave an IC50 of 9.9 µM.
